Data from PMC11779861 (Scientific Reports, 2025).
Where two headings read alike, the source gives them in different places.

Test system: Human Induced Pluripotent Stem Cell (hiPSC)-Derived Cardiomyocytes
Details: 3 nM

Q: Which results are given for `CN(CCOc1ccc(NS(C)(=O)=O)cc1)CCc1ccc(NS(C)(=O)=O)cc1` [Dofetilide]?
A: early after depolarization (EAD) events (30 min): 5/8; early after depolarization (EAD) events (24 h): 8/8; depolarization (EAD) events (48 h): 1/8
